# Only a part is listed here, and it is no random draw. Inconclusive results are not listed. Calls of active or inactive are those of the source. Calls follow the shape of the full dose curve.
# Test: qHTS Assay for Anthrax Lethal Toxin Internalization; also: nearly all actives have a fitted effect of over 50% in size
# Conditions: Cells, FRET ratio (460/530); at 40 µM (top of the series)
# % is scaled to controls: 0 for no effect and ±100 for the full control effect.
row,Compound,"activity change, negative = inhibition"
1,CN(CCCl)CCCl,inactive: -4.76%
2,O=[N+]([O-])C(Cl)(Cl)Cl,inactive: 3.07%

# Reference: PubChem BioAssay AID912 (National Center for Advancing Translational Sciences (NCATS), 2007)
